Antibody variant affinities, Ab-95 light chain, assay 2

The target is the same throughout: PDVDLGDISGINAS, from the HR2 region of SARS-CoV-2 spike.

Each scFv is VH, a (GGGGS)3 linker, VL, as in the parent Ab-95, and differs from it in the CDRs of the light chain only.
VH: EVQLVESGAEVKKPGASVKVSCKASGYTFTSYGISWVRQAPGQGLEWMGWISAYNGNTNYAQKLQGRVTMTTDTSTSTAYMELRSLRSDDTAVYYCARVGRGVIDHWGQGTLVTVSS
VL: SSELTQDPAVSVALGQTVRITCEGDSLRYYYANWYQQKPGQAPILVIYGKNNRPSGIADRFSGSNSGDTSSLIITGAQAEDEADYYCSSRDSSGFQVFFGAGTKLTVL

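Phage display of a naive human antibody library on the peptide gave the parent. Library AAYL52 holds single substitutions and randomly drawn double and triple substitutions in the CDRs. Affinity was read by AlphaSeq, a pooled yeast mating assay with surface-displayed partners. After mating in shaken culture at 30 °C for 16 h, diploids were selected and their barcode pairs sequenced. Each replicate has its own calibration line, from reference interactions of the BCL2 family. The assay was run in three technical replicates.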

Changes read parent residue, position, new residue, counted from the first residue of the VL shown. Scale: log10 of Kd in nM, estimated from mating counts; low values are strong binders. Averages over replicates are reported, and they cover detected replicates only. Where no diploid with the target was found in that replicate, the entry reads "n.d.": below detection, most likely a poor binder, though not proof of it. For reference, the parent read 2.31 as the reference entry and 2.25 as a member of this library. Background: pairings of library AAYL52 with three empty control strains gave a value in 28% of cases (median 3.91, 5th percentile 2.90). Values in that range, when seen in few replicates, are hard to tell from nonspecific mating. The control count says in how many pairings with the empty strains this scFv gave a signal, with their mean in brackets.

changes | replicates, log10 nM | log10 Kd (nM), mean | signal with controls
E23Y+R90Y+F95P | n.d. / 3.07 / n.d. | 3.07 | 1 of 9 (2.69)
Y29L+N33Q+K50R | n.d. / n.d. / n.d. | n.d. | 3 of 9 (4.13)
R28K+F95R | 3.94 / n.d. / n.d. | 3.94 | 0 of 9
D25T+F95Y | 2.68 / 2.38 / 2.40 | 2.49 | 1 of 9 (4.49)
G24E+N33Y+R53C | 4.40 / n.d. / 4.25 | 4.33 | 5 of 9 (4.07)
G49R+N51M+D91P | n.d. / n.d. / n.d. | n.d. | 2 of 9 (3.87)
N51S+S88N | 3.28 / 2.62 / 3.51 | 3.14 | 5 of 9 (3.87)
S89C+F95D | 2.39 / 2.03 / 2.11 | 2.18 | 2 of 9 (4.23)
P54W+F95W | 4.01 / 4.47 / n.d. | 4.24 | 4 of 9 (3.89)
L27E+R53H+P54R | 4.91 / n.d. / n.d. | 4.91 | 0 of 9
L27A+Y29P+Y30C | n.d. / 4.71 / n.d. | 4.71 | 0 of 9
R28E+Y30E+S88N | 2.28 / 2.14 / 1.98 | 2.13 | 4 of 9 (3.57)
Y30P+S55F+F98Q | 1.69 / 1.52 / 1.48 | 1.57 | 3 of 9 (3.70)
D25G+Y31D+G49L | 3.68 / 3.56 / n.d. | 3.62 | 1 of 9 (4.42)
D25E+R90H+D91H | 4.12 / 3.36 / 2.39 | 3.29 | 3 of 9 (4.06)
R53E+S92Y+Q96H | 3.91 / 3.15 / 4.40 | 3.82 | 0 of 9
A32M+S55N+Q96I | 3.66 / 4.10 / n.d. | 3.88 | 2 of 9 (4.43)
R53P+S89L+D91Y | 3.38 / n.d. / n.d. | 3.38 | 3 of 9 (4.76)
Y29F+S55D+S92W | n.d. / 2.65 / n.d. | 2.65 | 0 of 9
S55E+D91P+Q96G | 2.85 / 4.16 / n.d. | 3.51 | 0 of 9
A32F+G49M+N52G | 3.58 / 5.06 / 3.62 | 4.09 | 3 of 9 (4.59)
K50R+N51K+F98M | n.d. / 4.23 / 4.61 | 4.42 | 4 of 9 (3.95)
N33V+R53I+D91K | n.d. / n.d. / n.d. | n.d. | 1 of 9 (4.06)
L27E+R53W+F98I | 4.96 / n.d. / n.d. | 4.96 | 2 of 9 (3.44)
A32P | 1.85 / 1.80 / 1.51 | 1.72 | 5 of 9 (4.16)
Y29W+K50E+S93H | 3.16 / 3.41 / n.d. | 3.29 | 2 of 9 (4.32)
S93G+G94R+V97T | 2.44 / 2.28 / 1.83 | 2.18 | 4 of 9 (4.15)
F95S+Q96T | 2.15 / 2.14 / 1.96 | 2.08 | 2 of 9 (4.26)
Y29C+N51G+P54M | 5.62 / 3.85 / 4.35 | 4.61 | 5 of 9 (4.06)
Y31Q+G49R+S88T | n.d. / n.d. / n.d. | n.d. | 1 of 9 (4.01)
R90M+V97Q | 2.78 / 2.37 / 2.71 | 2.62 | 2 of 9 (4.27)
L27P+Y30I+R90A | 3.81 / n.d. / n.d. | 3.81 | 1 of 9 (4.79)
S26A+Y29S+A32L | 3.35 / n.d. / n.d. | 3.35 | 5 of 9 (3.52)
D25Q+R53S | 2.22 / 2.75 / 2.37 | 2.45 | 2 of 9 (4.41)
E23H+D25L+Y29S | 1.97 / 1.81 / 1.55 | 1.78 | 5 of 9 (3.49)
L27R+Y31F+F98Y | n.d. / n.d. / 3.71 | 3.71 | 2 of 9 (4.14)
G49I+R53H+F95K | 4.42 / n.d. / n.d. | 4.42 | 3 of 9 (4.37)
E23C+R53H+P54R | n.d. / 4.90 / n.d. | 4.90 | 0 of 9
G24T+G49I+R53G | n.d. / 4.55 / n.d. | 4.55 | 2 of 9 (3.90)
N51T+N52Q+V97H | 4.47 / n.d. / n.d. | 4.47 | 2 of 9 (4.44)
G24I+A32K+S92T | n.d. / n.d. / n.d. | n.d. | 6 of 9 (3.60)
N51G+S88N+F95W | 3.41 / 3.69 / 2.11 | 3.07 | 5 of 9 (4.19)
D25N+L27W+S93H | 3.87 / n.d. / n.d. | 3.87 | 3 of 9 (3.71)
L27H+N33R | 5.11 / n.d. / n.d. | 5.11 | 6 of 9 (3.74)
N52W+F95S+V97A | n.d. / n.d. / n.d. | n.d. | 2 of 9 (3.66)
E23W+Y31D+P54M | 1.50 / 1.64 / 1.14 | 1.43 | 1 of 9 (3.34)
S88I+R90K+F95M | 3.67 / n.d. / n.d. | 3.67 | 3 of 9 (4.40)
S26P+Y31S+N33A | 3.02 / 2.93 / 2.92 | 2.96 | 7 of 9 (3.77)
S26E+Y29R+Q96K | 4.02 / 3.25 / n.d. | 3.63 | 2 of 9 (3.73)
Y30C+A32K+S93D | 3.37 / n.d. / 3.39 | 3.38 | 3 of 9 (3.70)
Y29M+P54N+F95S | n.d. / n.d. / 2.83 | 2.83 | 2 of 9 (2.90)
Y29A+S89E+G94I | 2.61 / 3.19 / 3.48 | 3.09 | 3 of 9 (4.10)

The last 6 entries again:

changes | replicates, log10 nM | log10 Kd (nM), mean | signal with controls
S88I+R90K+F95M | 3.67 / n.d. / n.d. | 3.67 | 3 of 9 (4.40)
S26P+Y31S+N33A | 3.02 / 2.93 / 2.92 | 2.96 | 7 of 9 (3.77)
S26E+Y29R+Q96K | 4.02 / 3.25 / n.d. | 3.63 | 2 of 9 (3.73)
Y30C+A32K+S93D | 3.37 / n.d. / 3.39 | 3.38 | 3 of 9 (3.70)
Y29M+P54N+F95S | n.d. / n.d. / 2.83 | 2.83 | 2 of 9 (2.90)
Y29A+S89E+G94I | 2.61 / 3.19 / 3.48 | 3.09 | 3 of 9 (4.10)

The measurements come from Engelhart et al. 2022 (doi:10.1038/s41597-022-01779-4) through the FLAb antibody collection.